Most compounds without a hit are left out; they make up all but 13% or so of the library.
Sfp PPTase inh = blocks B. subtilis Sfp PPTase activity. AID 1490. Q9F4F7. Biochemical Sfp PPTase activity, qHTS. hit rate 3.5% among 310,000. Potency, µM, for the others: max response, negative = inhibition, usual class: inhibitors; active = well fitted inhibition curve with a large enough effect; inconclusive = small, poorly fitted or top-dose-only effect, or another doubt; inactive = no such curve, though single readings can be large or run the other way;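 also: the enzyme is Sfp with the accession as filed and its product quenches rhodamine fluorescence; potency is read from the fitted curve at half-maximal effect; 0% = enzyme reaction without inhibitor and -100% = no enzyme wells; top concentration of the series not given in the record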
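Sfp 15 nM + cpd, 15 min RT; start w/ rhodamine-CoA 5 uM, BHQ-2-YbbR 12.5 uM (final); 50 mM Hepes pH 7.6, 10 mM MgCl2, 0.01% NP-40, 0.01% BSA; read 525/598 nm at 0 and 30 min.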
G9a inh = G9a (human) methyltransferase inhibition. Potency, µM (doses to about 102 µM), for the others: at the top dose activity, negative = inhibition, usual class: inhibitors. AID 504332. 350,000 compounds, 8.8% hits. Q96KQ7. G9a H3K9 monomethylation, AlphaScreen, 2 h; note: potency is the fitted concentration of half-maximal effect; % is set by controls: 0 for no effect and ±100 for the full control effect; nearly all actives have a fitted effect of over 75% in size
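Enzyme 20 nM + cpd, 15 min RT; add b-H3K9 pep 500 nM / SAM 20 uM; 2 h RT; anti-H3K9me1 Ab 0.5 ug/mL + SA donor / anti-rabbit acceptor beads 20 ug/mL each, 10 min; AlphaScreen read.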
Lamin A splicing = LMNA splicing modulation | HeLa LMNA splicing GFP/RFP minigene ratio, 48 h | Potency, µM (doses to about 46.1 µM), without a hit: at the highest dose ratio change, negative = inhibition, most hits filed as inhibitors | 200,000 compounds, 0.01% hits; active = well fitted inhibition curve with a large enough effect in the signal ratio, with a control signal flat, not every such curve was filed as active; inconclusive = small, poorly fitted or top-dose-only effect, or effect the other way, or a change in a side signal; the % refers to the signal ratio; note: potency is the fitted concentration of half-maximal effect; % is set by controls: 0 for no effect and ±100 for the full control effect
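S3 HeLa stable clones carrying a lamin A-EGFP splicing minigene plus DsRed2 were seeded at 600 cells/well in Opti-MEM with 2% FBS, pin-dosed and incubated 48 h at 37°C. Acumen cytometry (488 nm) gave the GFP/RFP total-intensity ratio.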
ALDH1A1 block = inhibitors of human aldehyde dehydrogenase 1A1; Purified ALDH1A1, NADH fluorescence, propionaldehyde substrate; 220,000 compounds, 7.3% hits; P00352; Potency, µM (series often up to 75.3 µM), for the others: at the highest dose activity, negative = inhibition, usual class: inhibitors; active = well fitted inhibition curve with a large enough effect, not every such curve was filed as active; inconclusive = small, poorly fitted or top-dose-only effect, or another doubt; inactive = no such curve, though single readings can be large or run the other way;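 note: potency is the fitted concentration of half-maximal effect; plate controls were no enzyme wells and a reference inhibitor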
miR-21 FLuc = miR-21 reporter, rising signal; HeLa miR-21 FLuc reporter, luciferase, 48 h; Potency, µM (titrated, usually from 38.3 µM), without a hit: top-dose reporter change, positive = more light; AID 2288; 340,000 tested, under 10 active; active = well fitted rising curve with a large enough effect; inconclusive = small, poorly fitted or top-dose-only effect; inactive = no such curve, though single readings can be large or run the other way;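 further: % of control where 0% means no effect; miR-21 action dims this reporter so a rising signal means less miR-21 action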
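Compounds were titrated across several concentrations (up to approximately 40 uM) and incubated 48 hours with HeLa miR-21-FLuc reporter cells (miR-21 target sequence downstream of FLuc, endogenous miR-21). Readout was firefly luciferase luminescence after lytic detection reagent.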
JMJD2E inh = blocks human JMJD2E demethylase activity; B2RXH2; JMJD2E catalytic domain, FDH-coupled NADH fluorescence (FDH is formaldehyde dehydrogenase); Potency, µM (top dose mostly 57.1 µM), without a hit: at the top dose activity change, negative = inhibition, actives largely listed as inhibitors; 230,000 compounds, 1.6% hits; AID 2147; active = well fitted inhibition curve with a large enough effect, not every such curve was filed as active; inconclusive = small, poorly fitted or top-dose-only effect, or another doubt; inactive = no such curve, though single readings can be large or run the other way;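 note: potency is the fitted concentration of half-maximal effect; 0% = wells with enzyme and -100% = buffer wells without enzyme; nearly all actives have a fitted effect of over 50% in size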
Starred values were filed as active, the others as inactive; ? = inconclusive; . = not tested or not shown; [ ] = dose if it differs, or a comment. Unless noted, calls come from the whole dose curve; as a rule, active = well fitted curve in the direction sought with a large enough effect; inconclusive = small, poorly fitted or top-dose-only effect, or another doubt; inactive = no such curve, though single readings can be large; an effect the other way counts as inactive or inconclusive.

smiles,Sfp PPTase inh,G9a inh,Lamin A splicing,ALDH1A1 block,miR-21 FLuc,JMJD2E inh
COc1ccc(OC)c(S(=O)(=O)N2CCN(c3c(C)cccc3C)CC2)c1,-2%,?,-11%,14µM*,0%,-7%
COc1ccc(OC)c(NC(=O)CCCCCn2nnc3ccccc3c2=O)c1,8%,-7%,.,.,-1%,.
COc1ccc(NC(=O)CN(Cc2ccccc2)S(=O)(=O)c2ccc(C)cc2)cc1Cl,.,-29%[59 µM],.,.,21%,.
Cc1cc(/C=C2/C(=N)N3C(c4ccccc4)=CSC3=NC2=O)c(C)n1-c1ccccc1,-20%,50µM*,?,1%,-9%,-3%
CCOc1ccc(-n2c(C)cc(/C=C3/C(=N)N4C(=NC3=O)SN=C4S(C)(=O)=O)c2C)cc1,-25%,28µM*,.,18µM*,-2%,?
Cc1cc(/C=C2/C(=N)N3C(=NC2=O)SN=C3S(C)(=O)=O)c(C)n1-c1ccc(F)cc1,-13%,40µM*,13%[9.22 µM],28µM*,-31%,32µM*
CCOc1cc(/C=C2/C(=N)N3C(=NC2=O)SN=C3S(C)(=O)=O)ccc1OC(=O)c1ccco1,-3%,6%[0.0925 µM],.,.,2%,.
COc1ccccc1-n1c(C)cc(/C=C2/C(=N)N3C(=NC2=O)SN=C3S(C)(=O)=O)c1C,-15%,50µM*,?,?,-27%,?
Cc1ccccc1-n1c(C)cc(/C=C2/C(=N)N3C(c4ccccc4)=CSC3=NC2=O)c1C,7%,?,?,-7%,0%,?
CCc1nn(CC(=O)NCCN(CC)CC)c(=O)c2cc3occc3n12,.,1%[59 µM],.,.,-4%,.

Next section.
smiles,Sfp PPTase inh,G9a inh,Lamin A splicing,ALDH1A1 block,miR-21 FLuc,JMJD2E inh
COc1ccc(Cn2c(SCc3ccc(C(=O)NCc4cccs4)cc3)nc3ccncc32)cc1,.,-5%[59 µM],.,.,18%,.
Cn1c(=O)c2c(c3ccccc31)OC(=O)CC2c1ccc(C(F)(F)F)cc1 (stereo not drawn),.,-3%[59 µM],.,.,-2%,.
COc1ccc(C)cc1-n1c(C)cc(C=O)c1C,13%,-34%,.,?,-2%,-10%
COc1cc(/C=C2/C(=N)N3C(=NC2=O)SN=C3S(C)(=O)=O)ccc1OS(=O)(=O)c1ccccc1,-18%,25µM*,.,.,-14%,.
COc1ccccc1-n1c(C)cc(C=O)c1C,7%,12%[12.7 µM],-2%,14µM*,-2%,-14%
CCOc1cc(/C=C2/C(=N)N3C(=NC2=O)SN=C3S(C)(=O)=O)ccc1OS(=O)(=O)c1ccccc1,-5%,.,.,.,-5%,.
O=C(Cn1cnc([N+](=O)[O-])n1)c1ccc(O)c(O)c1,?,8.9µM*,.,.,-1%,.
COc1ccc(C2(c3ccc(OC)cc3)NC(=O)N(CC(=O)Nc3ccccc3C(F)(F)F)C2=O)cc1,14%,79µM*,.,.,9%,.
Cc1cc(NC(=O)CN2C(=O)NC(c3ccccc3)(c3ccc(C)c(C)c3)C2=O)no1 (stereo not drawn),.,18µM*,.,.,.,.
COc1ccc(C2(c3ccc(OC)cc3)NC(=O)N(CC(=O)Nc3ccccc3)C2=O)cc1,13%,-2%[59 µM],.,.,4%,.

Other entries follow.
smiles,Sfp PPTase inh,G9a inh,Lamin A splicing,ALDH1A1 block,miR-21 FLuc,JMJD2E inh
Cc1cc(NC(=O)CN2C(=O)NC(C)(c3ccccc3)C2=O)no1 (stereo not drawn),19%,1%[59 µM],8%,9%,-1%,0%
COc1ccc(C2(c3ccc(OC)cc3)NC(=O)N(CC(=O)Nc3ccccc3C)C2=O)cc1,79µM*,.,.,.,1%,.
CC(NCc1ccc2c(c1)n(C)c(=O)n2C)c1ccccc1 (stereo not drawn),.,-7%[59 µM],.,.,5%,.
O=c1c2c([nH]c3ccccc13)CCCC2,-1%,-2%[59 µM],-9%,?,-18%,?
O=c1c2c([nH]c3ccccc13)C(=C1CCCC1)CC2,-6%,35µM*,?,?,0%,?
COc1cccc(NC(=O)CSCc2cc(=O)c3ccc(C)c(C)c3[nH]2)c1,.,8%[59 µM],-4%[46 µM],.,-2%,.
COc1ccc(-c2[nH]c(-c3ccc(C)cc3)nc2SCC(=O)NC2CCCC2)cc1,10%,50µM*,?,?,21%,2%
COc1ccc(N(CC(=O)NCCc2ccccc2)C(=O)CCC(=O)Nc2nccs2)cc1,11%,56µM*,.,.,-1%,.
COc1ccc(-c2[nH]c(-c3ccccc3)nc2SCC(=O)Nc2nccs2)cc1,-1%,11µM*,?,5%,14%,3%
COc1ccc(-c2[nH]c(-c3ccc(Cl)cc3)nc2SCC(=O)Nc2nccs2)cc1,-5%,?,-3%,24%,18%,7%

Four of the entries above in order of the JMJD2E inh value, high to low:
canonical_smiles | Sfp PPTase inh | G9a inh | ALDH1A1 block | miR-21 FLuc | JMJD2E inh
COc1ccc(-c2[nH]c(-c3ccc(Cl)cc3)nc2SCC(=O)Nc2nccs2)cc1 | -5% | ? | 24% | 18% | 7%
COc1ccc(-c2[nH]c(-c3ccccc3)nc2SCC(=O)Nc2nccs2)cc1 | -1% | 11µM* | 5% | 14% | 3%
COc1ccc(-c2[nH]c(-c3ccc(C)cc3)nc2SCC(=O)NC2CCCC2)cc1 | 10% | 50µM* | ? | 21% | 2%
Cc1cc(NC(=O)CN2C(=O)NC(C)(c3ccccc3)C2=O)no1 (stereo not drawn) | 19% | 1%[59 µM] | 9% | -1% | 0%

The results go on.
smiles,Sfp PPTase inh,G9a inh,Lamin A splicing,ALDH1A1 block,miR-21 FLuc,JMJD2E inh
CCOC(=O)C(CC)n1nnc2sc(-c3ccccc3)cc2c1=O (stereo not drawn),.,61%[59 µM],.,.,-15%,.
CC(C)Cc1nnc(NC(=O)CCS(=O)(=O)c2ccc(Cl)cc2)s1,1%,42%,.,.,7%,.
COc1cc(OC)c(Nc2nc3ccccc3nc2-n2nc(C)cc2C)cc1Cl,.,16%[59 µM],.,.,2%,.
CN=CC1=C(O)c2ccccc2C1=O,25%,1%[59 µM],-3%,-1%,-13%,5%
O=C1C(C2=C(O)c3ccccc3C2=O)=Nc2ccccc21,56µM*,.,?,1.3µM*,-14%,?
CSc1nnc(-c2cc(Br)ccc2N=Cc2c(C)[nH]n(-c3ccccc3)c2=O)c(=O)[nH]1,-6%,-21%,.,19µM*,2%,-9%

Quoted from the results shown, two compounds:
smiles,Sfp PPTase inh,G9a inh,Lamin A splicing,ALDH1A1 block,miR-21 FLuc,JMJD2E inh
O=C1C(C2=C(O)c3ccccc3C2=O)=Nc2ccccc21,56µM*,.,?,1.3µM*,-14%,?
CSc1nnc(-c2cc(Br)ccc2N=Cc2c(C)[nH]n(-c3ccccc3)c2=O)c(=O)[nH]1,-6%,-21%,.,19µM*,2%,-9%
